The record followed here is patent US11912663B2 (dated 2024).

Sequences of proteins named here, by UniProt entry; tags and fusion partners are left off. Residues count along the entry.
UniProt P07949, 29-1114: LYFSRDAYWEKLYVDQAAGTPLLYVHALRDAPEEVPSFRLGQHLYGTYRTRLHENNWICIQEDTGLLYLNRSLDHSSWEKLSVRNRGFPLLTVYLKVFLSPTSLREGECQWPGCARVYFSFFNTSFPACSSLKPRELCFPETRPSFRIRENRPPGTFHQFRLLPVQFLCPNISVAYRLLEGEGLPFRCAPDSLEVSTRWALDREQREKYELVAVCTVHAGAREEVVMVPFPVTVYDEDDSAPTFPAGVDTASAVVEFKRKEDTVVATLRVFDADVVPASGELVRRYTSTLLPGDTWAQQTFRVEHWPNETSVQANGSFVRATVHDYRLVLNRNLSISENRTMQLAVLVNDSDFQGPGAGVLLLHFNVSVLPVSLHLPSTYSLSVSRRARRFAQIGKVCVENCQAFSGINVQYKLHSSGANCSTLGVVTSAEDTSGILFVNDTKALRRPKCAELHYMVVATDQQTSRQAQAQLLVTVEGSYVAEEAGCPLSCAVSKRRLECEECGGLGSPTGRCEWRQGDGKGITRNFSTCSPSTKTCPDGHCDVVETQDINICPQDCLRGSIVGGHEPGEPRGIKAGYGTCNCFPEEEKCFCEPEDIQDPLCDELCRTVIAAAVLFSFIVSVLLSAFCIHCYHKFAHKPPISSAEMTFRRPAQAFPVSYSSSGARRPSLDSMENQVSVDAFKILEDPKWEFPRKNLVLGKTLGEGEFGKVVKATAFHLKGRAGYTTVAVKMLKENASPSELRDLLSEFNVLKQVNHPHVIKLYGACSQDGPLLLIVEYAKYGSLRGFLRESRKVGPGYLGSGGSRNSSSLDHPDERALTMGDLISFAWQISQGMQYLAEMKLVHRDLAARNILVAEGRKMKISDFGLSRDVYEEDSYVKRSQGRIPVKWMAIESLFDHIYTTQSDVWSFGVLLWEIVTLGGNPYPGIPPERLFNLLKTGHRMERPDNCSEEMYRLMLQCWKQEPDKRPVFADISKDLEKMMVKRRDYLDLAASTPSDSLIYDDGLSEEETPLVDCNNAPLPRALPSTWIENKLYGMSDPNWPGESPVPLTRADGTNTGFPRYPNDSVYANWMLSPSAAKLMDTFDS

In one experiment the target is RET (Homo sapiens (Human), UniProt P07949). The experiment is described as follows: kinase inhibition, Mobility-Shift Assay. Type of experiment: biochemical. The note with it: read-out: RET IC50; 23 μM ATP.
Experiment [1] deals with gastric cancer cell line (SNU16). Nature of the experiment: tumor cell proliferation inhibition (CTG), gastric cancer cell line. It counts as cell-based. The settings on record: Homo sapiens, SNU-16, 72 h, read-out: SUN16 IC50.
Experiment [2] concerns pancreatic cancer cell line (BXPC3). Nature of the experiment: tumor cell proliferation inhibition (CTG), pancreatic cancer cell line. It counts as cell-based. The note with it: Homo sapiens, BXPC-3, 72 h, read-out: BXPC3 (pancreatic cancer) IC50.
A further experiment has as its system prostatic cancer (PC-3). Nature of the experiment: tumor cell proliferation inhibition (CTG), PC-3. Type of experiment: cell-based. The settings on record: 72 h, read-out: PC-3 IC50.
Experiment [3] concerns kidney cancer cell line (Caki-1). Nature of the experiment: tumor cell proliferation inhibition (CTG), kidney cancer cell line. Type of experiment: cell-based. The note with it: Homo sapiens, CAKI-1, 72 h, read-out: Caki-1 (renal cancer) IC50.
Experiment [4] concerns hepatocellular carcinoma cell line (Hep3B 2.1-7). The experiment is described as follows: tumor cell proliferation inhibition (CTG), hepatocellular carcinoma cell line. It counts as cell-based. The note with it: Homo sapiens, 72 h, read-out: Hep3B 2.1-7 IC50.
Experiment [5] deals with cervical cancer cell lines (Hela). Nature of the experiment: tumor cell proliferation inhibition (CTG), cervical cancer cell line. Type of experiment: cell-based. The note with it: Homo sapiens, 72 h, read-out: Hela IC50.
In experiment [6] the test system is lung cancer cell line (A549). The experiment is described as follows: tumor cell proliferation inhibition (CTG), lung cancer cell line. The note with it: Homo sapiens, A549, 72 h, read-out: A549 (lung cancer) IC50. Type of experiment: cell-based.

Where only a bound is given, the exact number is not on record here.

Take `CNC(=O)c1cc(Oc2ccc(NC(=O)Nc3ccc(Cl)c(C(F)(F)F)c3)c(F)c2)ccn1` [Regorafenib, regorafenib, reference compound]: the IC50 at RET was more than 0.01 µM.

Turning to `CNC(=O)c1cc(Oc2ccc(NC(=O)Nc3ccc(Cl)c(C(F)(F)F)c3)cc2)ccn1` [Sorafenib, sorafenib, reference compound], the 50% inhibitory concentration (IC50) is more than 10 µM in experiment [1]; more than 10 µM in experiment [2]; more than 10 µM in the experiment with prostatic cancer (PC-3); more than 5 µM in experiment [3]; more than 5 µM in experiment [4]; more than 10 µM in experiment [5]. For the same compound, the IC50 in experiment [6] was more than 5 µM.
